Values quoted from earlier work as cited in patent publication US20220008553A1, “ANTI-ERBB2 ANTIBODY-DRUG CONJUGATE AND COMPOSITION THEREOF, PREPARATION METHOD THEREFOR, AND USE THEREOF” (SICHUAN KELUN-BIOTECH BIOPHARMACEUTICAL CO., LTD., priority 2015, published 2022).
Marks after values point to notes of the source that are not given here.

Conditions: rats, according to Bender et al., The AAPS Journal 2014; cited from earlier work

T-DM1
T1/2 (h): 114* h
